Results published in paper PMC2740399 (American Journal of Physiology - Cell Physiology, 2009).

Tests used:
HA-tagged hGnRHR [1] = molecular target: T1, HA-tagged hGnRHR (Homo sapiens, UniProt P30968); assay: Cell surface expression of HA-hGnRHR; format: cell-based; settings: HeLa, 10^−7 M GnRH, 37°C
T1 sequence (P30968 1-328): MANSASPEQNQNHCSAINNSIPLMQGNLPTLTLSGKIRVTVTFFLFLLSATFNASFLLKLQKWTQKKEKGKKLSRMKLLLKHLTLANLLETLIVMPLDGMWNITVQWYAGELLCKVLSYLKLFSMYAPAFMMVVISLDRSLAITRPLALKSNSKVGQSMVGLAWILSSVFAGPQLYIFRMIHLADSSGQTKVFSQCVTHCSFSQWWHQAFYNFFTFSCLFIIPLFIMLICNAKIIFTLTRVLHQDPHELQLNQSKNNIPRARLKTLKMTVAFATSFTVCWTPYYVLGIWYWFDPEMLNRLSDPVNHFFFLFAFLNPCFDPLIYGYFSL

HA-tagged hGnRHR [2] = molecular target: T1, HA-tagged hGnRHR; assay: Trafficking, anti-HA loading with agonist present; format: cell-based; settings: HeLa; 10^−7 M GnRH with anti-HA, 0–60 min, 37°C
[3] = molecular target: T2, HA-tagged h.XGnRHR (hGnRHR with added XGnRHR COOH tail) (Homo sapiens, UniProt P30968); assay: Cell surface expression of HA-h.XGnRHR; format: cell-based, human/Xenopus laevis; settings: HeLa, 10^−7 M GnRH, 37°C
T2 sequence (P30968 1-328): T1 sequence (P30968 1-328)

Substance: gonadotropin-releasing hormone [GnRH]
- reduction in cell surface expression, IN3-pretreated cells (HA-tagged hGnRHR [1]; after 18 h 10^−7 M IN3): pronounced reduction
- reduction in cell surface expression (HA-tagged hGnRHR [1]; no IN3 pretreatment): did not measurably alter cell surface expression
- inclusion count (effect of agonist) (HA-tagged hGnRHR [2]): increased
- reduction in cell surface expression, IN3-pretreated cells ([3]; after 18 h 10^−7 M IN3): pronounced reduction
- reduction in cell surface expression ([3]; no IN3 pretreatment): reduced expression
